In brackets after ≈: the same amount, converted by molar mass.
Key:
Staph. aureus 45 = test: microbe, parasite or virus in culture; details: Staphylococcus aureus, 45, 22 h
Staph. aureus 45 RAR 2 = test: microbe, parasite or virus in culture; details: Staphylococcus aureus, 45RAR2, 22 h

Q: For `CC[C@H]1OC(=O)[C@H](C)[C@@H](O[C@H]2C[C@@](C)(OC)[C@@H](OC(N)=O)[C@H](C)O2)[C@H](C)[C@@H](O[C@@H]2O[C@H](C)C[C@H](N(C)C)[C@H]2O)[C@](C)(OC)C[C@@H](C)C(=O)[C@H](C)[C@@H](O)[C@]1(C)O` [Example 1, 6-O-methyl-erythromycin A-4"-carbamate], which MIC (Staph. aureus 45) is on record?
A: 0.02 µg/mL (≈ 0.0253 µM)

Q: And the MIC (Staph. aureus 45 RAR 2)?
A: 0.05 µg/mL (≈ 0.0632 µM)

Source: patent publication US4740502A, “Semisynthetic erythromycin antibiotics” (Abbott Laboratories, priority 1986, dated 1988)
